The record followed here is ChEMBL document CHEMBL1133563, “Development of new hydroxamate matrix metalloproteinase inhibitors derived from functionalized 4-aminoprolines” (J Med Chem, 2000).

One assay addresses Collagenase 3 (Homo sapiens, UniProt P45452). Kind of assay: In vitro inhibitory activity against human recombinant matrix metalloprotease-13 (collagenase-3).
A further assay addresses T1, Interstitial collagenase (Homo sapiens, UniProt P03956).
T1 sequence (P03956 whole entry): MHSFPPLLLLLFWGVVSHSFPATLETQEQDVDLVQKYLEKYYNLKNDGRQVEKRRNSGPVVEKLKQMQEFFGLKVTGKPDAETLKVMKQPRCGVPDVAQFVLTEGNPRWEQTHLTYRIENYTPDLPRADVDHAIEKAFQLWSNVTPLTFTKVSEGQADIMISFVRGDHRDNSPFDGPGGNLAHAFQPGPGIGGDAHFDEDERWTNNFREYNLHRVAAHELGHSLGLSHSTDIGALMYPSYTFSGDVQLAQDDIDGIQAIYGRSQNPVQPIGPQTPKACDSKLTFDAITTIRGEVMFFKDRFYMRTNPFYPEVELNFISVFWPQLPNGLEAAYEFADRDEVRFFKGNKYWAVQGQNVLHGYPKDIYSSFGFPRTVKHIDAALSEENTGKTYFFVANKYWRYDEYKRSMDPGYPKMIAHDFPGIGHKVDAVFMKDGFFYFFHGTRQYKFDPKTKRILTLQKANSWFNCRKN
Kind of assay: In vitro inhibitory activity against matrix metalloprotease -1 (collagenase-1).

On to `COc1ccc(S(=O)(=O)N2C[C@@H](NCCc3ccccc3)C[C@@H]2C(=O)NO)cc1`, for which the half-inhibitory concentration (IC50) at Collagenase 3 is 1 nM.

`CCCCOc1ccc(S(=O)(=O)N2C[C@@H](N3C(=O)CN(C)C3=O)C[C@@H]2C(=O)NO)cc1`: on Interstitial collagenase, 920 nM corresponded to half-maximal inhibition (IC50).
